# Binding of CDR-mutated scFvs to a peptide of the spike HR2 region

Reference: Li et al. 2023, doi:10.1038/s41467-023-39022-2. File: FLAb, binding data.

All variants were tested on one target, the spike HR2 peptide PDVDLGDISGINAS (SARS-CoV-2).

The variants keep the light chain, the linker and the frameworks of Ab-14 (scFv order VH, a 15-residue (Gly4Ser)3 linker, VL).
VH: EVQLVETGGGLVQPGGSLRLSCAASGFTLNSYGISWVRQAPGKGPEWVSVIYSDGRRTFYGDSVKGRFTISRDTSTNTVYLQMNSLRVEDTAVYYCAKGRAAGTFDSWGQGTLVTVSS
VL: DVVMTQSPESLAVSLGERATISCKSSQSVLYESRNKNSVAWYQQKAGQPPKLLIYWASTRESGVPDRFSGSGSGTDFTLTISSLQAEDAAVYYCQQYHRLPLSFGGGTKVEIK

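The starting antibody came from a phage panning campaign against this peptide. This is the validation round: designs drawn from the data on random variants, tested in the same kind of assay. Group labels follow the data file (Ctrl: baseline library sampled from a position-specific scoring matrix, with some repeated check sequences; En: ensemble of fine-tuned language models; GP: Gaussian process model; GPLM: also part of the Gaussian process libraries; HC: hill climbing; Gen: genetic algorithm; Gibbs: Gibbs sampling; a sequence that several methods proposed may carry one label only). AlphaSeq pools MATa yeast showing the antibodies with MATalpha yeast showing the peptide. The frequency of each diploid, read from paired DNA barcodes, reflects how well the two displayed proteins bind. A regression on co-assayed BCL2-family reference pairs converts the normalised counts of each replicate to an apparent Kd. Each pool was mated in six replicate cultures.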

The parent's heavy chain CDRs are GFTLNSYGIS, VIYSDGRRTFYGDSVK, GRAAGTFDS; each variant's own CDRs replace them letter for letter. Affinities are written as log10 Kd with Kd in nM; a lower number is a better binder. The mean shown is taken over the replicates in which the pair was detected. An entry "ND" has no value in the source: the pair was not observed among the diploids in that replicate. This suggests poor binding but is not conclusive.

CDR-H1 | CDR-H2 | CDR-H3 | group | replicates, log10 nM | mean, log10 nM | control signals
GFTLNSYGIS | VIYSDGRRTFYADSVK | GQEAGTFDL | GP_Gibbs | ND / ND / ND / ND / ND / ND | ND | 0 of 18
GFTLNSYGYS | VIYSDGRRTFYGDSVK | GRAAGSFDS | Ctrl | ND / ND / ND / ND / ND / ND | ND | 0 of 18
KFTLNEYGIS | VIYSDGRRTFYTDSVK | GRSAGTFDS | GP_HC | ND / ND / ND / ND / ND / ND | ND | 0 of 18
GFDLNEYGIS | VIYADGQRTFYADSVK | GKNAGTFDV | En_HC | 0.10 / -0.22 / -0.16 / -0.55 / -0.08 / -0.23 | -0.19 | 0 of 18
GFSLNEYGIS | VIYSDGRRTFYGDSVK | GRAALTFDG | GP_HC | ND / ND / ND / ND / ND / ND | ND | 0 of 18
GFALDEYGIS | VIYADGSRSAYTSSVK | GVHNGDVNI | En_Gibbs | ND / ND / ND / ND / ND / ND | ND | 0 of 18
GFQLNSYGIS | VIYSDGRRTFYGDSVK | GRVAGTFDS | GPLM_Gen | -0.37 / ND / ND / ND / -1.40 / ND | -0.89 | 0 of 18
GFDLNEYGIS | VIYADGKRTAYADNVK | GENAGTFDI | En_Gen | -0.45 / 0.03 / -0.36 / -0.54 / 0.13 / -0.63 | -0.30 | 0 of 18
GENLDEYGIS | VIYADGVREAYANKVK | GEQGSFFIT | En_Gibbs | ND / ND / ND / ND / ND / ND | ND | 0 of 18
GFSLNEYGIS | VIYSDGRRTFYCDSVK | GRAAVTFDL | GP_HC | ND / ND / ND / ND / 2.12 / ND | 2.12 | 0 of 18
GFTLNEYGIS | VIYSDGRRTFYGDSYK | GRAAGTFPS | Ctrl | ND / ND / ND / ND / ND / ND | ND | 0 of 18
GFNLAEYGIS | VIYADGRRVAYANAVK | GKNGMFFSF | En_Gibbs | ND / ND / ND / 0.35 / ND / ND | 0.35 | 0 of 18
GFNLNEYGIS | VIYADGVRKFYADSVK | GNTAGTFDS | En_HC | -0.37 / -0.44 / -0.69 / -0.69 / -0.45 / -0.52 | -0.53 | 0 of 18
GFDLEDYGIS | VIYADGKRTAYSDSVK | GEVAGTFDV | En_Gen | -0.24 / -0.50 / 0.55 / -0.46 / -0.78 / -0.75 | -0.36 | 0 of 18
GFDLNEYGIS | VIYADGMRTAYSDSVK | GNVAGTFDA | En_Gen | -0.02 / -0.48 / -0.48 / -0.88 / -0.36 / -0.42 | -0.44 | 0 of 18
GFDLEEYGIS | VIYADGRRTAYADKVK | GENAGTFDI | En_HC | -0.30 / -0.33 / -0.45 / -0.56 / -0.35 / -0.56 | -0.42 | 0 of 18
GFDLNEYGIS | VIYSDGRRTAYGDSVK | GRAAGTFDS | Ctrl | -0.12 / -0.26 / -0.20 / -0.51 / -0.45 / -0.32 | -0.31 | 0 of 18
GFDLNSYGIS | VIYSDGRRTFYCDSVK | GRVAGTFDS | GPLM_HC | 0.56 / 0.72 / 0.55 / 0.08 / 0.64 / 0.78 | 0.55 | 0 of 18
GFTLNEYGIS | VIYSDGRRTFYGDSFK | GRAAGTFDS | Ctrl | 0.61 / 0.64 / 0.55 / 0.22 / 0.48 / 0.36 | 0.48 | 1 of 18 (2.37)
GFTLNEYGIS | VIYSDGRRTFYGDSVK | GRAAGTFNQ | GPLM_HC | ND / ND / ND / ND / ND / ND | ND | 0 of 18
GFNLNEYGIS | VIYADGRRTFYADSVK | GQNAGTFIV | En_HC | ND / ND / ND / ND / ND / ND | ND | 0 of 18
GFTLNMYGIS | VIYSDGRRTFYGDKVK | GRAAGTFDS | Ctrl | ND / ND / ND / ND / 3.35 / ND | 3.35 | 0 of 18
GFDLNSYGIS | VIYSDGRRTFYQDSVK | GRWAGTFDA | GP_Gibbs | -0.06 / -0.22 / ND / -0.30 / ND / -0.32 | -0.22 | 0 of 18
GFTVNSYGIS | VIYSDGRRTFYGDSVK | GVAAGTFVS | Ctrl | ND / ND / ND / ND / ND / ND | ND | 0 of 18
GFDLNNYGIS | VIYSDGRRTFYGDNVK | ARAAGTFDS | Ctrl | ND / ND / ND / ND / ND / ND | ND | 1 of 18 (0.13)
GFNIQDYGIS | VIYADGSRTAYAEPVK | GNIGGTIST | En_Gibbs | ND / ND / ND / ND / ND / ND | ND | 0 of 18
GFDLDEYGIS | VIYADGKRTAYADDVK | GNVAGTFDQ | En_Gen | -0.66 / -0.82 / -0.76 / -0.59 / -1.00 / -0.69 | -0.75 | 0 of 18
GFDLNSYGIS | VIYSDGRRTFYIDSVK | GKAAGTFDV | GP_Gen | 0.25 / 0.73 / 0.02 / 0.42 / 0.13 / 0.58 | 0.35 | 0 of 18
GFTLESYGIS | VIYSDGRRTFYDDSVK | GKAAGTFDS | GP_HC | ND / 0.09 / 0.03 / 0.11 / 1.05 / 1.44 | 0.55 | 0 of 18
GFDLNEYGIS | VIYADGRRTFYADSVK | GNTAGTFTN | En_HC | -0.11 / -0.31 / -0.54 / -0.41 / -0.41 / -0.31 | -0.35 | 0 of 18
GFNLNSYGIS | VIYSDGRRTFYSDSVK | GQTAGTFDS | GPLM_Gibbs | 0.23 / 0.58 / 0.24 / 0.14 / 0.36 / 0.34 | 0.31 | 0 of 18
GFDLNEYGIS | VIYADGRRTFYTDSVK | GQLAGTFDF | En_HC | -0.08 / -0.55 / -0.63 / -0.71 / -0.66 / -0.21 | -0.47 | 0 of 18
GFTLNSYGIS | VIYSDGRRTFYGDSVK | GKPAGTFDS | Ctrl | ND / ND / ND / ND / ND / ND | ND | 1 of 18 (2.50)
GFELNSYGIS | VIYSDGRRTFYGDSVK | GQEAGTFDS | GPLM_Gibbs | -0.19 / -0.06 / 0.51 / 0.64 / -0.24 / 0.89 | 0.26 | 0 of 18
GFALNEYGIS | VIYSDGRRTFYKDSVK | GKAAGTFDS | GPLM_Gibbs | 0.36 / 0.24 / 0.60 / 0.20 / 0.52 / 0.38 | 0.38 | 0 of 18
GFSLNEYGIS | VIYSDGRRTFYGDSVK | GSAAGTFDS | GPLM_Gen | 0.96 / 1.78 / 1.48 / 0.59 / 1.02 / 1.24 | 1.18 | 0 of 18
GFNISEYGIS | VIYADGMRSEYADNVK | GHKGNAFID | En_Gibbs | ND / ND / ND / ND / ND / ND | ND | 2 of 18 (1.42)
GFTLNEYGIS | VIYSDGRRTFYGDSVK | GRDWGTFDS | Ctrl | ND / ND / ND / ND / ND / ND | ND | 0 of 18
GFDLDEYGIS | VIYADGMRTAYADSVK | GETAGTFDQ | En_Gen | 0.05 / -0.94 / -1.34 / 0.06 / -0.91 / -0.38 | -0.58 | 0 of 18
GFTLNSYGIS | VIYSDGRRTFYFDSVK | GKLAGTFDS | Ctrl | ND / ND / ND / ND / ND / ND | ND | 0 of 18
GFTLHSYGIS | VIYSDGRRTFYDDSVK | GQLAGTFDS | GPLM_HC | ND / 2.43 / 2.86 / 2.41 / 2.33 / 2.06 | 2.42 | 0 of 18

The first 4 entries again:

{"CDR-H1": "GFTLNSYGIS", "CDR-H2": "VIYSDGRRTFYADSVK", "CDR-H3": "GQEAGTFDL", "group": "GP_Gibbs", "replicates, log10 nM": "ND / ND / ND / ND / ND / ND", "mean, log10 nM": "ND", "control signals": "0 of 18"}
{"CDR-H1": "GFTLNSYGYS", "CDR-H2": "VIYSDGRRTFYGDSVK", "CDR-H3": "GRAAGSFDS", "group": "Ctrl", "replicates, log10 nM": "ND / ND / ND / ND / ND / ND", "mean, log10 nM": "ND", "control signals": "0 of 18"}
{"CDR-H1": "KFTLNEYGIS", "CDR-H2": "VIYSDGRRTFYTDSVK", "CDR-H3": "GRSAGTFDS", "group": "GP_HC", "replicates, log10 nM": "ND / ND / ND / ND / ND / ND", "mean, log10 nM": "ND", "control signals": "0 of 18"}
{"CDR-H1": "GFDLNEYGIS", "CDR-H2": "VIYADGQRTFYADSVK", "CDR-H3": "GKNAGTFDV", "group": "En_HC", "replicates, log10 nM": "0.10 / -0.22 / -0.16 / -0.55 / -0.08 / -0.23", "mean, log10 nM": "-0.19", "control signals": "0 of 18"}

The parent sequence was in this pool as ten entries: three were never detected, three once, and four in most replicates, with averages from 0.34 to 2.37. The authors averaged sequences with at least three values out of six and counted those with two or fewer as poor binders. A sequence measured in both rounds can read differently, since the two assays cover different ranges. Nonspecific signal, from three strains lacking the peptide, appeared in 1% of pairings of all heavy chain designs, centred on 2.08 (5% of these signals below 0.84); values are not corrected for it. For each scFv, signals with the empty controls are counted beside the result, with their mean in brackets.